Test results: ChEMBL document CHEMBL4000146, “Synthesis, antiplasmodial activity and mechanistic studies of pyrimidine-5-carbonitrile and quinoline hybrids” (Eur J Med Chem, 2015)

Assays:
Heme [1] = system: Heme
Heme [2] = system: Heme; remark: listed apart in the source

CSc1nc(NCCCCNc2ccnc3cc(Cl)ccc23)c(C#N)c(-c2cccc([N+](=O)[O-])c2)n1
logKa (Heme [1]): 5.54
logKa (Heme [2]): 5.08
logKa (mu-oxodimeric heme): 5.86
